This is an account of results in ChEMBL document CHEMBL1687930 (J Med Chem, 2011).

A short description of this test: Upregulation of P-glycoprotein mRNA expression in human KB-3-1 cells. It is filed as functional, cell-based.

Bounds are passed on as bounds.

`CN1CC[C@H](N(C)C(=O)N2CC(c3cc(F)ccc3F)=C[C@@]2(CO)c2ccccc2)[C@H](F)C1` had a fold change (FC) of more than 500.
